Values of other authors as cited in article PMC11998001, “Towards P2X4 Positron Emission Tomography Tracing” (Journal of Medicinal Chemistry, 2025).

Test system: hP2X4R
Conditions: representative P2X4 antagonists, Figure 2

IC50: 1400 nM
Structure (SMILES): Cc1ccc(S(=O)(=O)N2c3ccccc3Oc3ccccc32)cc1 [PSB-12062]
